Reference: ChEMBL document CHEMBL1142487, “Design, synthesis, and structure-activity relationship of novel opioid kappa-agonists” (Bioorg Med Chem, 2008)

Amino acid sequences for entries named in this document (tags omitted). A change or cut given only in a name is not applied to a line headed by its entry.
UniProt P42866, whole entry, looked up: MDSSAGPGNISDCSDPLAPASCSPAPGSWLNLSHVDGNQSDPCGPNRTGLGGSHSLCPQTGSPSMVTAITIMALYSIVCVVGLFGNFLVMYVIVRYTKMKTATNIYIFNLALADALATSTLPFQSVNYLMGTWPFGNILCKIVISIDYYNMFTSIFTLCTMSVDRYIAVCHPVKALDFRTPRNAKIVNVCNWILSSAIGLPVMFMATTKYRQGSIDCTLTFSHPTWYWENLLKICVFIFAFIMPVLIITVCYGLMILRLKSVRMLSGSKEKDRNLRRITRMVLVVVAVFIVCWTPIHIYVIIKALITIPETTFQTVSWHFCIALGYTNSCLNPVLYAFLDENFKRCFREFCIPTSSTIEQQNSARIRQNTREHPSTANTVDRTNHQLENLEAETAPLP
UniProt P32300, whole entry, looked up: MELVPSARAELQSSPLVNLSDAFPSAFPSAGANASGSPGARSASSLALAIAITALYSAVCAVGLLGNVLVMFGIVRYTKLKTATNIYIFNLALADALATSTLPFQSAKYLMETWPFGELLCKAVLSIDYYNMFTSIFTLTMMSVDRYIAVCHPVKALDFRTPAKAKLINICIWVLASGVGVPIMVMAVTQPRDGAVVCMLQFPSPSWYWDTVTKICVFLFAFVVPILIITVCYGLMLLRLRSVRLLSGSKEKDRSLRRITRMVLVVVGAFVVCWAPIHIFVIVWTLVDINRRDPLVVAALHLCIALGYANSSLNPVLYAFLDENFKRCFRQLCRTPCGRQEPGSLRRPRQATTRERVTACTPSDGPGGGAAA
UniProt P41144: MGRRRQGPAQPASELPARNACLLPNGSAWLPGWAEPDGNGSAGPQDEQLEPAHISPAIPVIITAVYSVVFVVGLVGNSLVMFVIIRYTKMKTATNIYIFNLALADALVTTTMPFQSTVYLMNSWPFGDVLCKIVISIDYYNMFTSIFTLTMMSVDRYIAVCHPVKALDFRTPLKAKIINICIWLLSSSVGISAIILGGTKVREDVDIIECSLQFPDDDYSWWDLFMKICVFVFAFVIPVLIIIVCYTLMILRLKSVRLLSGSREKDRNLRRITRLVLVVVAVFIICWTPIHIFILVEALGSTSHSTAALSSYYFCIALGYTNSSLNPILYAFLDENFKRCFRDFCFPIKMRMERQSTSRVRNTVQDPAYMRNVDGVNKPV
UniProt P97266, whole entry, looked up: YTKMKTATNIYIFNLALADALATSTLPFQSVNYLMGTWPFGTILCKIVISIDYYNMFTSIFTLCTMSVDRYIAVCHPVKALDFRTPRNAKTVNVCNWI

Experiments:
[1] = target: Mu-type opioid receptor (Mus musculus) (UniProt P42866); assay: Equilibrium constant, ratio of IC50 for mu opioid receptor in ddy mouse vas deferens in presence of 100 nM naloxone to IC50 for mu opioid receptor in ddy mouse vas deferens
[2] = target: Delta-type opioid receptor (Mus musculus) (UniProt P32300); assay: Equilibrium constant, ratio of IC50 for delta opioid receptor in ddy mouse vas deferens in presence of 10 nM Naltrindole to IC50 for delta opioid receptor in ddy mouse vas deferens
[3] = target: Opioid receptor (mu and kappa) (Cavia porcellus) (UniProt P41144+P97266); assay: Selectivity ratio of Ke for mu opioid receptor in guinea pig ileum to Ke for kappa opioid receptor in guinea pig ileum
Mus musculus [4] = species on record: Mus musculus; assay: Selectivity ratio of Ke for mu opioid receptor in ddy mouse vas deferens to Ke for kappa opioid receptor in ddy mouse vas deferens
Mus musculus [5] = species on record: Mus musculus; assay: Selectivity ratio of Ke for delta opioid receptor in ddy mouse vas deferens to Ke for kappa opioid receptor in ddy mouse vas deferens
Cavia porcellus = species on record: Cavia porcellus; assay: Equilibrium constant, ratio of IC50 for mu opioid receptor in guinea pig ileum in presence of 100 nM Naloxone to IC50 for mu opioid receptor in guinea pig ileum
[6] = target: Kappa-type opioid receptor (Cavia porcellus) (UniProt P41144); assay: Equilibrium constant, ratio of IC50 for kappa opioid receptor in guinea pig ileum in presence of 10 nM nor-BNI to IC50 for kappa opioid receptor in guinea pig ileum
[7] = target: Kappa-type opioid receptor (Mus musculus) (UniProt P33534); assay: Equilibrium constant, ratio of IC50 for kappa opioid receptor in ddy mouse vas deferens in presence of 1 nM nor-BNI to IC50 for kappa opioid receptor in ddy mouse vas deferens

With CN(C(=O)Cc1ccc(Cl)c(Cl)c1)C1CCCCC1N1CCCC1 (stereo not drawn) the Ke [1] was 31.5 nM, the Ke [2] was 41.2 nM and the Ratio [3] was 390. For the same molecule, the Ratio (Mus musculus [4]) was 1020, the Ratio (Mus musculus [5]) was 1330 and the Ke (Cavia porcellus) was 12.1 nM. It also gave a Ke [6] of 0.031 nM and a Ke [7] of 0.031 nM.
